Inhibition data for 4 compounds are collected here from ChEMBL document CHEMBL1132980, “1,2,4-Triazolo[4,3-a]quinoxalin-1-one: a versatile tool for the synthesis of potent and selective adenosine receptor antagonists” (J Med Chem, 2000).

By inhibition is commonly meant the relative decrease from the control value, in per cent.

Molecules are shown by their SMILES.

In the test the test system is Adenosine receptor A2a (Bos taurus). In words: Binding affinity towards adenosine A2A receptor of bovine striatal membrane in presence of [3H]-CGS- at a concentration of 20 uM.
As to `CC(=O)Nc1nc2ccccc2n2c(=O)n(-c3ccccc3)nc12`, the inhibition was 70%.

As to `COc1ccc(-n2nc3c(=O)[nH]c4ccccc4n3c2=O)cc1`, the inhibition was 0%.

For `Cc1ccc(N2CN3C(=N2)C(=O)Nc2ccccc23)cc1`, the inhibition was found to be 18%.

Regarding `O=c1[nH]c2ccccc2n2c(=O)n(-c3ccc(Cl)cc3)nc12`, the inhibition amounted to 5.5%.
